{"source": "patent US6139840A", "about": "“Methods of eliciting an antibody response using flea protease proteins and homologs thereof” (priority 1997, dated 2000)", "system": "soluble fed and unfed flea midgut preparations", "assay_type": "biochemical", "details": "substrate BAPNA", "excerpt": "Pellets from the centrifugation step were also collected and resuspended for analysis. Also prepared were whole flea lysates."}
{"smiles": "[Ca+2]", "note": "[calcium ions]", "values": [{"measurement": "stimulation of proteolytic activity", "result": "about 25%"}]}
